Measured values published in patent US20260382572A1, “TREATMENT OF FRONTOTEMPORAL DEMENTIA OR FRONTOTEMPORAL LOBAR DEMENTIA” (published 2026).

Experiments:
[1] = test system: cytokines, chemokines in mouse brain; assay: LPS in vivo model: multiplex assay of cytokines and chemokines in mouse brain; settings: 20 mg·kg^−1 i.p.
Procedure: FIG. 2. Compound 1 decreases the inflammatory process 4 and 24 hours after LPS administration in vivo. Compound 1 (20 mg·kg^−1) daily was injected i.p. four days before the i.p. LPS (0.5 mg·kg^−1) administration.
FIG. 3. Compound 1 ameliorates the resolution of the inflammatory process triggered by LPS. Multiplex assay of cytokines 4 h (A) and 24 h (B) after the proinflammatory stimuli (n=5).
(§1) The LPS in vivo model was induced, sickness behaviour evaluated (locomotion test and novel object recognition test) and cytokines measured by qPCR as described by [Fernindez-Mendivil, Cristina et al. “Protective role of microglial HO-1 blockade in aging: Implication of iron metabolism.” Redox biology vol. 38 (2021): 101789. doi:10.1016/j.redox.2020.101789]. The panel of mouse cytokines, chemokines, and growth factors were measured by Luminex xMAP technology for multiplexed quantification at Evetechnologies (https://www.evetechnologies.com/)
Example 2.3.1. Treatment with Compound 1 reduces LPS-induced cytokine expression and release in mouse brain. Mice were treated i.p. with a daily dose of 20 mg·kg^−1 of Compound 1 for 4 consecutive days. On the last day, LPS (0.5 mg·kg^−1) was injected i.p. one h after the compound. Thereafter, behavioural, and biochemical outcomes were analysed at different time points.

[2] = PAMPA-BBB in vitro blood-brain barrier permeation assay; settings: printed in brackets below Pe
Excerpt: The in vitro blood-brain barrier permeation assay (PAMPA-BBB) was used for predicting the brain penetration of compounds, following a described method [Herrera-Arozamena, Clara et al. “Resveratrol-Based MTDLs to Stimulate Defensive and Regenerative Pathways and Block Early Events in Neurodegenerative Cascades.” Journal of medicinal chemistry vol. 65, 6 (2022): 4727-4751. doi:10.1021/acs.jmedchem.lc01883]. The results are given as the mean±SD. In each experiment, 11 quality control standards of known BBB permeability were included to validate the analysis set.

LPS treated mice = assay: LPS-induced sickness behaviour: novel object recognition test; settings: 20 mg·kg^−1 i.p.; compared to vehicle-LPS treated animals
Procedure: FIG. 5. Sub-chronical Compound 1 administration improves behavioural parameters in LPS treated mice. Compound 1 (20 mg·kg^−1) was injected once a day via i.p. four days before the i.p. LPS (0.5 mg·kg^−1) administration, thereafter behavioural tests were conducted. (A) Mice weight change (T0 and T24: saline n=17, LPS n=17, LPS+Compound 1 n=19, T4 and T8 saline n=8, LPS n=7, LPS+Compound 1 n=8). (B) Locomotion activity measured by line crossings of an imaginary grid. (C) Scheme of NOR test. (D) Discrimination index (DI) of the mice studied: saline (n=16), LPS (n=9) and LPS+Compound 1 (n=13).
as §1
Example 2.3.1. Treatment with Compound 1 reduces LPS-induced cytokine expression and release in mouse brain. […] Thereafter, behavioural, and biochemical outcomes were analysed at different time points.

[3] = Blood-brain distribution, intravenous and oral administration; settings: for AUClast / Cmax / Tmax: brain, male C57BL/6 mice
Procedure: Example 3.5. Blood-brain distribution studies by intravenous and oral administration. Following a single intravenous at 20 mg/kg and oral at 50 mg/kg dose administration of Compound 1 in male C57BL/6 mice, the brain concentrations were quantifiable up to 4 h (SAI Life Sciences Ltd).

male and female mice = assay: Maximum tolerated dose (MTD) in mice; settings: oral 500 mg/kg, 60 and 120 min after administration
Procedure: Example 3.6. Maximum tolerated dose (MTD) in mice. Compound 1 was orally administered at different doses (100, 200, and 500 mg/kg) to male and female mice and potential side effects were observed after 60 and 120 min following administration (Eurofins Pharmacology). […] This evidence indicates a considerable range of safety for Compound 1 by oral administration, between the tested therapeutic dose (50 mg/kg) and the maximum tolerated dose (500 mg/kg).

With COc1ccc2c(c1)CC(c1c[nH]c3ccc(OC)cc13)N2 (stereo not drawn) the “Additional cytokines (FIG. 3)” value ([1]; 4 h and 24 h after LPS, most of them) was “decreased with compound treatment”, the IP10 ([1]; brain, 4 and 24 h after LPS) was “decreased significantly” and the KC ([1]; brain, 4 and 24 h after LPS) was “decreased significantly”. The MIP2 ([1]; brain, 4 and 24 h after LPS) was “decreased significantly”, the RANTES ([1]; brain, 4 and 24 h after LPS) was “decreased significantly” and the MCP-1 ([1]; brain, 4 h after LPS) was “decreased significantly”. For the same compound, the IL-6 ([1]; brain, 4 h post LPS) was “marked reduction”, the IL-7 ([1]; brain, 4 h post LPS) was “marked reduction” and the IL-6 ([1]; brain, 24 h post LPS) was “restored to basal conditions”. The IL-7 ([1]; brain, 24 h post LPS) was “restored to basal conditions”, the “granulocyte-colony stimulating factor (G-CSF)” value ([1]; brain, LPS) was “significantly reduced” and the “PAMPA-BBB classification (cns+)” value [2] was “(cns+)”. For the same compound, the “cognitive decline (NOR discrimination index)” value (LPS treated mice) was “did not show cognitive decline”, the “brain concentrations quantifiable up to” value ([3]; IV 20 mg/kg and oral 50 mg/kg) was “up to 4 h” and the AUClast ([3]; IV 20 mg/kg) was 3750.37 ng·h/g. For the same compound, the Cmax ([3]; IV 20 mg/kg) was 9332.44 ng/g, the Tmax ([3]; IV 20 mg/kg) was 4.98 min and the AUClast ([3]; PO 50 mg/kg) was 2010.59 ng·h/g. The Cmax ([3]; PO 50 mg/kg) was 2211.96 ng/g, the Tmax ([3]; PO 50 mg/kg) was 60 min and the “observable side effects (behavioral, neurological, autonomic)” value (male and female mice) was “did not cause any observable side effects”.
